The target in the test is T1, human TrkA receptor (Homo sapiens, UniProt P04629).
T1 construct: host or cells: U2OS cells (PathHunter cell line)
The test can be described thus: DiscoverX PathHunter TrkA functional assay (NGF-stimulated U2OS cells). Particulars: U2OS cells expressing human TrkA-PK, Shc1-EA and p75NTR; compound 1 h, then NGF at ~80% of maximal response for 3 h; luminescence. Format: cell-based. Here is the method: TrkA functional activity was measured using a DiscoverX PathHunter assay. In this assay, U2OS cells express the human TrkA receptor as a fusion with the weakly complementing fragment of B-galactosidase, which DiscoverX calls “Prolink (PK)”; additionally, Shc1 is fused with a larger fragment, which is called “Enzyme Acceptor (EA)”. Activation of the TrkA receptor, upon NGF addition, results in the kinase domain being phosphorylated, resulting in subsequent recruitment of Shc1-EA protein. That recruitment results in an active B-galactosidase enzyme that is detected by addition of a chemiluminescent substrate. The human p75^NTR protein was also expressed as a co-receptor for NGF.
All reagents were purchased from DiscoverX, except for the receptor agonists (NGF, BDNF, NT3) which were purchased from Peprotech. Cells were expanded and frozen into cryovials, and stored in the vapor phase of liquid nitrogen, and thawed immediately before use. Thawed cells were added to a 384-well plate at 7500 cells/well, and allowed to incubate overnight. Compound at various concentrations was added the following morning and allowed to incubate on cells for 1 h. Then, NGF was added at a concentration sufficient to elicit ˜80% of a maximal response and allowed to incubate for 3 h at ambient temperature. […] The plate was then read via luminescence on the Perkin Elmer Envision.

Sequences of proteins named here, by UniProt entry; tags and fusion partners are left off. Residues count along the entry.
UniProt P04629, 33-796: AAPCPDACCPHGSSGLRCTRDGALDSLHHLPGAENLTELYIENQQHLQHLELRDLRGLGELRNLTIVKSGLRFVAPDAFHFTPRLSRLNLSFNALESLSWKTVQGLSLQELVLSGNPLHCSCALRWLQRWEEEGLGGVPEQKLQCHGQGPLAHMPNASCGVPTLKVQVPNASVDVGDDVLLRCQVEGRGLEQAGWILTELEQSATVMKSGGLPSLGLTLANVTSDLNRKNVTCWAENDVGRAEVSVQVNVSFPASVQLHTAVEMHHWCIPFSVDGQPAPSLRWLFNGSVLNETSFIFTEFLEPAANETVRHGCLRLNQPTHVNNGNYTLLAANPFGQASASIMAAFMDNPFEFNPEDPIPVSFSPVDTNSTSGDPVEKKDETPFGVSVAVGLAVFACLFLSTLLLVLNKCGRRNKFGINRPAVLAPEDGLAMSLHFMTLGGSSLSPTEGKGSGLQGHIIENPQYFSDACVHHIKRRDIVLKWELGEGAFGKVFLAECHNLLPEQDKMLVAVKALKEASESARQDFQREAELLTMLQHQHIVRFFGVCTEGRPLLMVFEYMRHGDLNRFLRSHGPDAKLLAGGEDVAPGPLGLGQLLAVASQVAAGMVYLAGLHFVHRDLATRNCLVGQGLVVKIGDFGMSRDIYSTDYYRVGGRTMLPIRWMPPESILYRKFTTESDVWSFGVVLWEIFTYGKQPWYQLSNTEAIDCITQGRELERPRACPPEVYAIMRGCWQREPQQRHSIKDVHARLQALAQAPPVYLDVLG

SMILES strings stand for the structures.

`Cn1ccc(-c2cc(C(=O)Nc3c(-c4ccccc4)nc4cc(CNC(=O)C5(O)CC5)ccn34)ccc2C(F)(F)F)n1` [Compound 82, N-[7-({[(1-hydroxycyclopropyl)carbonyl]amino}methyl)-2-phenylimidazo[1,2-a]pyridin-3-yl]-3-(1-methyl-1H-pyrazol-3-yl)-4-(trifluoromethyl) benzamide]: half-maximal inhibition (IC50) required 4.6 nM.

In turn, `CC(O)c1ccn2c(NC(=O)c3ccc(C(F)(F)F)c(-c4ncccn4)c3)c(-c3ccccc3)nc2c1` (single isomer, unassigned) [Compound 68, (R or S)-N-[7-(1-hydroxyethyl)-2-phenylimidazo[1,2-a]pyridin-3-yl]-3-pyrimidin-2-yl-4-(trifluoromethyl) benzamide] registered an IC50 of 4.6 nM.

The IC50 is the point on the concentration scale where inhibition reaches its midpoint. A higher IC50 goes with a need for much substance.
